Data: patent US11578058B2, “Heterocyclic compounds for inhibiting TYK2 activities” (Beijing InnoCare Pharma Tech Co., Ltd., priority 2020, dated 2023)

Chains of the proteins cited; added tags and fusions are not shown. Residues count along the entry.
UniProt O60674, 849-1124: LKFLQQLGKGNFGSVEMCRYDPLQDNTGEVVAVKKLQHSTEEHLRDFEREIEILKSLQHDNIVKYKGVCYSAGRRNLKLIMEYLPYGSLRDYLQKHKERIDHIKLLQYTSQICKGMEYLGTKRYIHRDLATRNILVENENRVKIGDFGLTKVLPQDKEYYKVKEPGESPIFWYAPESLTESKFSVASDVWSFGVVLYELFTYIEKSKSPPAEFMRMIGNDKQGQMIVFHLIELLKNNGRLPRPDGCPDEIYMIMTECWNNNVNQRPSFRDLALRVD

Each compound was assayed against human recombinant JAK2 kinase domain (JH1) (Homo sapiens (Human), UniProt O60674) (assay: JAK2 kinase domain enzymatic activity assay (HTRF)). Conditions: 2.5 μM ATP in substrate solution.
Format: biochemical
Compound [2H]C([2H])([2H])NC(=O)c1nnc(NC(=O)C2CC2)cc1Nc1cccc(-c2ncn(C)n2)c1OC([2H])([2H])[2H] [Compound 4, 6-(cyclopropanecarboxamido)-4-((2-(methoxy-d3)-3-(1-methyl-1H-1,2,4-triazol-3-yl)phenyl)amino)-N-(methyl-d3)pyridazine-3-carboxamide] has an IC50 of 2.3 µM.
Compound [2H]C([2H])([2H])n1cnc(-c2cccc(Nc3cc(NC(=O)C4CC4)nnc3C(=O)NC)c2OC)n1 [Compound 2, 6-(cyclopropanecarboxamido)-4-((2-methoxy-3-(1-(methyl-d3)-1H-1,2,4-triazol-3-yl)phenyl)amino)-N-methylpyridazine-3-carboxamide] has an IC50 of 2.2 µM.
[2H]C([2H])([2H])NC(=O)c1nnc(NC(=O)C2CC2)cc1Nc1cccc(-c2ncn(C([2H])([2H])[2H])n2)c1OC [Compound 1, 6-(cyclopropanecarboxamido)-4-((2-methoxy-3-(1-(methyl-d3)-1H-1,2,4-triazol-3-yl)phenyl)amino)-N-(methyl-d3)pyridazine-3-carboxamide] gave an IC50 of 2.3 µM.
